Reference: US20180338964A1, “3-(PIPERIDIN-4-YL)-ISOXAZOL-3(OH)-ONES FOR TREATMENT OF DERMATOLOGIC DISORDERS” (Emeriti Pharma AB, priority 2014, published 2018)

Tested on: fibrinolysis in human plasma clot (tPA activation of plasminogen)
Details: citrated platelet poor human plasma, tPA 80 ng/ml, 37° C.

IC50 (read-out: IC50 (clot-lysis time prolonged to twice the vehicle value)): 0.94 µM
IC90 (read-out: IC90 (clot-lysis time prolonged to nine times the vehicle value)): 3.26 µM
SMILES: CC(C)(C)C[C@H]1C[C@@H](c2cc(=O)[nH]o2)CCN1 [5-[(2R,4S)-2-(2,2-dimethylpropyl)piperidin-4-yl]-2,3-dihydro-1,2-oxazol-3-one]
